According to patent publication EP4711372A1, “CRYSTAL FORM OF HETEROCYCLIC COMPOUND, SALT THEREOF, CRYSTAL FORM OF SALT THEREOF, AND USE” (Hubei Bio-Pharmaceutical Industrial Technological Institute …, priority 2023, dated 2024):

Experiment: Solid-state stability evaluation test (XRPD and HPLC)
Assay type: physicochemical
Details: peak at RRT 1.00 (compound represented by formula I-3B)
Experimental: The purity test, dynamic solubility test, and stability test in the assay were performed using an ultra-performance liquid chromatograph (UPLC).
Samples of the crystal form A of the compound represented by formula I-3B, the crystal form B of the compound represented by formula I-3B, the crystal form of the fumarate complex of the compound represented by formula I-3B, and the crystal form of the tartrate salt of the compound represented by formula I-3B were placed under conditions of 60°C/closed/1 day, 25°C/60% RH/open/1 week, and 40°C/75% RH/open/1 week, respectively. Their physical and chemical stability were evaluated by XRPD and HPLC.

Measured: HPLC purity

Cn1nc2cc(N3C[C@H]4C[C@H]4c4cc(C(=O)N5CCC(F)(F)CC5)cnc43)ccn2c1=O
99.68 area%: 25°C/60% RH/open/1 week | 40°C/75% RH/open/1 week | 60°C/closed/1 day | Onset
